Each structure is given as a SMILES string. This is a selection; strong and weak results do not stand in their true shares. The source made the active and inactive calls.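 Rule for the calls: active = corrected activity change at or below -50% at 5 µM; inactive = the rest.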

This assay can be described thus: cytotoxicity in KKLEB CF airway cells, primary screen, cytotoxicity control for CF NF-kB inhibitor project, cell-based, uHTS, fluorescence assay plates (AID 602141). The conditions noted are these: KKLEB CF airway cells viability, ATPlite luminescence, overnight; at 5 µM; stronger effect = lower value; cells stimulated with P. aeruginosa culture filtrate.
With `O=c1[nH]c2ccccc2n1C1CCN(C(c2ccccc2)c2nnnn2C2CCCCC2)CC1` (stereo unspecified), the activity change (cytotoxicity) was inactive: 0.5%.

Take `COc1cc(C(=O)NCC2(N(C)C)CCCCC2)ccc1OC(F)F`: the activity change (cytotoxicity) was inactive: -8.5%.

In the case of `CCOC(=O)N1CCC(Nc2cccc(C)c2)CC1`, the activity change (cytotoxicity) was inactive: -17.5%.

For the compound `O=c1[nH]c2ccccc2n1C1CCN(C(c2cccc3ccccc23)c2nnnn2C2CCCC2)CC1` (stereo unspecified), the activity change (cytotoxicity) is inactive: -0.5%.

In the case of `CC(C)(C)n1nnnc1C(c1ccccc1)N1CCC(n2c(=O)[nH]c3ccccc32)CC1` (stereo unspecified), the activity change (cytotoxicity) was inactive: 2.2%.

`O=C1CCN(Cc2ccccc2)CC1`: the activity change (cytotoxicity) is inactive: 11.3%.

As to `CCOc1ccc(C)cc1CN(CCCl)CCCl`, the activity change (cytotoxicity) is inactive: -3%.

`O=C(NCC1(N2CCCCC2)CCCCC1)c1ccc(F)cc1`: the activity change (cytotoxicity) was inactive: -2.7%.

`O=P1(N(CCCl)CCCl)SCCCS1`: the activity change (cytotoxicity) was inactive: 8.8%.

Turning to `CCCCn1nnnc1C(c1cc2ccccc2o1)N1CCC(n2c(=O)[nH]c3ccccc32)CC1` (stereo unspecified), the activity change (cytotoxicity) is inactive: -16.4%.

For `CCCCOc1ccc(C(=O)NCC2(N3CCOCC3)CCCCC2)cc1`, the activity change (cytotoxicity) is inactive: -0.3%.

As to `COc1ccc(NC2CCN(CCc3ccccc3)CC2)c(OC)c1`, the activity change (cytotoxicity) was inactive: 5.8%.

For the compound `CCOC(=O)N1CCC(Nc2ccc(F)cc2)CC1`, the activity change (cytotoxicity) was inactive: 1.3%.

Consider `O=c1[nH]c2ccccc2n1C1CCN(C(c2ccccc2OC(F)(F)F)c2nnnn2C2CCCCC2)CC1` (stereo unspecified), for which the activity change (cytotoxicity) was inactive: -16.3%.

With `O=C(NCC1(N2CCCCC2)CCCCC1)c1ccc(Cl)nc1`, the activity change (cytotoxicity) was inactive: 6.5%.

For the compound `Cc1cc(C)cc(N(C(=O)c2ccccc2)C2CCN(C(=O)OC(C)(C)C)CC2)c1`, the activity change (cytotoxicity) is inactive: -7.3%.

`O=C(NCC1(N2CCOCC2)CCCCC1)c1cc2ccccc2o1`: the activity change (cytotoxicity) is inactive: -7.9%.

`O=C(OC1CN2CCC1CC2)C1c2ccccc2Oc2ccccc21` (stereo unspecified): the activity change (cytotoxicity) is inactive: 2.3%.

Regarding `O=c1[nH]c2ccccc2n1C1CCN(C(c2cc3ccccc3o2)c2nnnn2C2CCCCC2)CC1` (stereo unspecified), the activity change (cytotoxicity) was inactive: -11.3%.

Take `N#CC1(Nc2ccccc2)CCN(Cc2ccccc2)CC1`: the activity change (cytotoxicity) is inactive: -10.9%.

As to `O=C(NCC1(N2CCCCC2)CCCCC1)c1ccc(Cl)s1`, the activity change (cytotoxicity) was inactive: 2.8%.

For `COc1ccc(Cl)cc1C(=O)NCC1(N2CCOCC2)CCCCC1`, the activity change (cytotoxicity) was inactive: 11.5%.

`CCOC(=O)N1CCC(Nc2ccc(OC)cc2)CC1`: the activity change (cytotoxicity) is inactive: 5.1%.

In the case of `CCCCn1nnnc1C(c1ccc(OC)cc1)N1CCC(n2c(=O)[nH]c3ccccc32)CC1` (stereo unspecified), the activity change (cytotoxicity) is inactive: -6.1%.

For `COc1ccc(C(=O)NCC2(N3CCCCC3)CCCCC2)cc1`, the activity change (cytotoxicity) was inactive: -5.2%.

As for `CCC(c1nnnn1C1CCCC1)N1CCC(n2c(=O)[nH]c3ccccc32)CC1` (stereo unspecified), the activity change (cytotoxicity) is inactive: -5.9%.

Consider `COc1ccc(C(=O)NCC2(N3CCCCC3)CCCCC2)c(OC)c1OC`, for which the activity change (cytotoxicity) is inactive: -14.6%.

As for `CC(C)(C)OC(=O)N1CCC(N(C(=O)c2ccccc2)c2ccc(F)cc2)CC1`, the activity change (cytotoxicity) is inactive: -3.4%.

On to `O=C(NCC1(N2CCCCC2)CCCCC1)c1ccc(=O)[nH]c1`, for which the activity change (cytotoxicity) was inactive: 18.8%.

For `CCCCn1nnnc1C(c1cccs1)N1CCC(n2c(=O)[nH]c3ccccc32)CC1` (stereo unspecified), the activity change (cytotoxicity) was inactive: -16%.

`CCCCn1nnnc1C(CC)N1CCC(n2c(=O)[nH]c3ccccc32)CC1` (stereo unspecified): the activity change (cytotoxicity) was inactive: 5%.

Turning to `O=C(NCC1(N2CCCCC2)CCCCC1)c1cccs1`, the activity change (cytotoxicity) is inactive: 1.7%.

On to `CSc1ccccc1C(=O)NCC1(N2CCCCC2)CCCCC1`, for which the activity change (cytotoxicity) is inactive: -4.2%.

Take `Cc1cccc(NC2(C#N)CCN(Cc3ccccc3)CC2)c1`: the activity change (cytotoxicity) is inactive: 12%.

As for `O=C(NCC1(N2CCCCC2)CCCCC1)c1cncc(Br)c1`, the activity change (cytotoxicity) is inactive: 10%.

Consider `CN1CCC(Nc2cccc(F)c2)CC1`, for which the activity change (cytotoxicity) was inactive: -0.6%.

With `COc1ccc(C(c2nnnn2C2CCCC2)N2CCC(n3c(=O)[nH]c4ccccc43)CC2)cc1` (stereo unspecified), the activity change (cytotoxicity) was inactive: -3.6%.

`Cc1ccc(C(=O)NCC2(N(C)C)CCCCC2)o1`: the activity change (cytotoxicity) is inactive: 0.1%.

In the case of `CCCOc1ccc(C(=O)NCC2(N(C)C)CCCCC2)cc1OC`, the activity change (cytotoxicity) is inactive: -3.9%.

As to `CC(C)c1ccc(NC2CCN(C(=O)OC(C)(C)C)CC2)cc1`, the activity change (cytotoxicity) was inactive: 3.5%.

With `CCCCn1nnnc1C(c1ccccc1OC(F)(F)F)N1CCC(n2c(=O)[nH]c3ccccc32)CC1` (stereo unspecified), the activity change (cytotoxicity) is inactive: -1.3%.

In the case of `COc1ccc(CN(CCCl)CCCl)cc1Cl`, the activity change (cytotoxicity) was inactive: 6.1%.

In the case of `CN(C)c1cccc(C(=O)NCC2(N3CCCCC3)CCCCC2)c1`, the activity change (cytotoxicity) is inactive: -3.2%.

For the compound `COc1cc(OC)c(C(=O)NCC2(N(C)C)CCCCC2)cc1OC`, the activity change (cytotoxicity) was inactive: -0.8%.

Regarding `CCC(c1nnnn1C(C)(C)C)N1CCC(n2c(=O)[nH]c3ccccc32)CC1` (stereo unspecified), the activity change (cytotoxicity) is inactive: -8.8%.

For the compound `O=C(NCC1(N2CCOCC2)CCCCC1)c1cc(F)c(F)cc1Cl`, the activity change (cytotoxicity) is inactive: -11.7%.

As to `CCCCn1nnnc1C(c1ccnc2ccccc12)N1CCC(n2c(=O)[nH]c3ccccc32)CC1` (stereo unspecified), the activity change (cytotoxicity) was inactive: 7.2%.

Consider `O=C(NCC1(N2CCCCC2)CCCCC1)c1cccc(C(F)(F)F)c1`, for which the activity change (cytotoxicity) was inactive: -2%.

As for `COc1cc(C(=O)NCC2(N3CCCCC3)CCCCC2)ccc1OC(F)F`, the activity change (cytotoxicity) was inactive: 2.8%.

Take `O=C(NCC1(N2CCOCC2)CCCCC1)c1cc(=O)[nH]c2ccccc12`: the activity change (cytotoxicity) is inactive: -5.6%.

With `CCCCn1nnnc1C(c1cccc2ccccc12)N1CCC(n2c(=O)[nH]c3ccccc32)CC1` (stereo unspecified), the activity change (cytotoxicity) is inactive: 18.4%.

Take `CN1CCN(CCOC(=O)C(O)(c2ccccc2)c2ccccc2)CC1`: the activity change (cytotoxicity) is inactive: 8.6%.

Consider `COc1ccc(NC2CCN(C(=O)OC(C)(C)C)CC2)cc1`, for which the activity change (cytotoxicity) is inactive: -4.4%.

Turning to `CC(C)c1ccc(C(=O)NCC2(N3CCOCC3)CCCCC2)cc1`, the activity change (cytotoxicity) is inactive: -0.7%.

Take `CC(C)(C)n1nnnc1C(c1ccccc1OC(F)(F)F)N1CCC(n2c(=O)[nH]c3ccccc32)CC1` (stereo unspecified): the activity change (cytotoxicity) is inactive: 2.1%.

Turning to `O=C(NCC1(N2CCCCC2)CCCCC1)c1ccc(OC(F)F)cc1`, the activity change (cytotoxicity) is inactive: -36.3%.

On to `CCN1CCC(Nc2ccc(Cl)cc2)CC1`, for which the activity change (cytotoxicity) was inactive: -0.5%.

Consider `N#CC1(Nc2ccccc2)CCN(CCc2ccccc2)CC1`, for which the activity change (cytotoxicity) is inactive: -0.4%.

Turning to `O=c1[nH]c2ccccc2n1C1CCN(C(c2ccccc2OC(F)(F)F)c2nnnn2C2CCCC2)CC1` (stereo unspecified), the activity change (cytotoxicity) was inactive: 6.6%.

For the compound `CSc1ccc(C(=O)NCC2(N3CCOCC3)CCCCC2)cc1`, the activity change (cytotoxicity) was inactive: 7.1%.

For the compound `O=C(NCC1(N2CCCCC2)CCCCC1)c1cccc([N+](=O)[O-])c1`, the activity change (cytotoxicity) is inactive: 33.3%.

The values above are taken from PubChem BioAssay AID602141 (Sanford-Burnham Center for Chemical Genomics, 2011).
